Reference: US10442819B2, “Tricyclic compounds as inhibitors of mutant IDH enzymes” (Merck Sharp & Dohme Corp., priority 2014, dated 2019)

Protein sequences, listed by entry. Tags and fused reporters are not part of them.
UniProt O75874, whole entry R132H: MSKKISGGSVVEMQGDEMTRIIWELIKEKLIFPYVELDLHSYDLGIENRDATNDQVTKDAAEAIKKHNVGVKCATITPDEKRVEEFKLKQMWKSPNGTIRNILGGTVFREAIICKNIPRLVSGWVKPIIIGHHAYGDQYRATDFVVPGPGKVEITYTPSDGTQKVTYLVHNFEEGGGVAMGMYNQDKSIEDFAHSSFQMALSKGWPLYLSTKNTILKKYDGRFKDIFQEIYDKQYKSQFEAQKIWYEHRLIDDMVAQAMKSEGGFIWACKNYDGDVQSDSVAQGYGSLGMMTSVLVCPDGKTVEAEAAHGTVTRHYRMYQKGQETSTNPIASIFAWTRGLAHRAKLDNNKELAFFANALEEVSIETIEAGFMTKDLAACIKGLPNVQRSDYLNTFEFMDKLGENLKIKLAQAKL

Target: R132H mutant IDH1 enzyme (Homo sapiens (Human), UniProt O75874, R132H)
Experiment: R132H IDH1 Enzymatic Assay
Type: biochemical
Conditions: R132H mutant IDH1 enzyme 1.5 nM final; luminescence readout; read-out: IC50

SMILES	IC50
O=C([C@H]1CC[C@H](NC2(C(F)(F)F)CC2)CC1)N1Cc2cccnc2Nc2ccc(N3CCOCC3)cc21 [Example 453, trans-4-[(8-morpholin-4-yl-5,11-dihydro-6H-pyrido[2,3-b][1,5]benzodiazepin-6-yl)carbonyl]-N-[1-(trifluoromethyl)cyclopropyl]-cyclohexanamine]	33 nM
CC(C)[C@H](N[C@H]1CC[C@H](C(=O)N2Cc3cccnc3Nc3ccc(N4CCOCC4)cc32)CC1)C(F)(F)F [Example 454, trans-N-[(1S)-2-methyl-1-(trifluoromethyl)propyl]-4-[(8-morpholin-4-yl-5,11-dihydro-6H-pyrido[2,3-b][1,5]benzodiazepin-6-yl)carbonyl]cyclohexanamine]	115 nM
CC(C)[C@H](N[C@H]1CC[C@@H](C(=O)N2Cc3cccnc3Nc3ccc(N4CCOCC4)cc32)CC1)C(F)(F)F [Example 455, cis-N-[(1S)-2-methyl-1-(trifluoromethyl)propyl]-4-[(8-morpholin-4-yl-5,11-dihydro-6H-pyrido[2,3-b][1,5]benzodiazepin-6-yl)carbonyl]cyclohexanamine]	175 nM
CC(C)[C@@H](N[C@H]1CC[C@H](C(=O)N2Cc3cccnc3Nc3ccc(N4CCOCC4)cc32)CC1)C(F)(F)F [Example 456, trans-N-[(1R)-2-methyl-1-(trifluoromethyl)propyl]-4-[(8-morpholin-4-yl-5,11-dihydro-6H-pyrido[2,3-b][1,5]benzodiazepin-6-yl)carbonyl]cyclohexanamine]	108 nM
CC(C)[C@@H](N[C@H]1CC[C@@H](C(=O)N2Cc3cccnc3Nc3ccc(N4CCOCC4)cc32)CC1)C(F)(F)F [Example 457, cis-N-[(1R)-2-methyl-1-(trifluoromethyl)propyl]-4-[(8-morpholin-4-yl-5,11-dihydro-6H-pyrido[2,3-b][1,5]benzodiazepin-6-yl)carbonyl]cyclohexanamine]	90 nM
C[C@H](N[C@H]1CC[C@H](C(=O)N2Cc3cccnc3Nc3ccc(N4CCOCC4)cc32)CC1)C(F)(F)F [Example 458, trans-4-[(8-morpholin-4-yl-5,11-dihydro-6H-pyrido[2,3-b][1,5]benzodiazepin-6-yl)carbonyl]-N-[(1S)-2,2,2-trifluoro-1-methylethyl]cyclohexanamine]	87 nM
O=C([C@H]1CC[C@@H](N2CC(F)(F)C2)CC1)N1Cc2cccnc2Nc2ccc(N3CCOCC3)cc21 [Example 459, 6-{(cis-4-(3,3-difluoroazetidin-1-yl)cyclohexyl]carbonyl}-8-morpholin-4-yl-6,11-dihydro-5H-pyrido[2,3-b][1,5]benzodiazepine]	237 nM
O=C([C@H]1CC[C@H](N2CC(F)(F)C2)CC1)N1Cc2cccnc2Nc2ccc(N3CCOCC3)cc21 [Example 460, 6-{[trans-4-(3,3-difluoroazetidin-1-yl)cyclohexyl]carbonyl}-8-morpholin-4-yl-6,11-dihydro-5H-pyrido[2,3-b][1,5]benzodiazepine]	870 nM
C[C@H](N[C@H]1CC[C@H](C(=O)N2Cc3cccnc3Nc3ccc(C4CCOCC4)cc32)CC1)C(F)(F)F [Example 463, trans-4-{[8-(tetrahydro-2H-pyran-4-yl)-5,11-dihydro-6H-pyrido[2,3-b][1,5]benzodiazepin-6-yl]carbonyl}-N-[(1S)-2,2,2-trifluoro-1-methylethyl]cyclohexanamine]	48 nM
O=C([C@H]1CC[C@@H](N(CC(F)(F)F)C2CC2)CC1)N1Cc2cccnc2Nc2ccc(C3CCOCC3)cc21 [Example 464, cis-N-cyclopropyl-4-{[8-(tetrahydro-2H-pyran-4-yl)-5,11-dihydro-6H-pyrido[2,3-b][1,5]benzodiazepin-6-yl]carbonyl}-N-(2,2,2-trifluoroethyl)cyclohexanamine]	85 nM
O=C([C@H]1CC[C@@H](N2CC(F)(F)C2)CC1)N1Cc2cccnc2Nc2ccc(C3CCOCC3)cc21 [Example 465, 6-{[cis-4-(3,3-difluoroazetidin-1-yl)cyclohexyl]carbonyl}-8-(tetrahydro-2H-pyran-4-yl)-6,11-dihydro-5H-pyrido[2,3-b][1,5]benzodiazepine]	48 nM
O=C([C@H]1CC[C@H](NC2(C(F)(F)F)CC2)CC1)N1Cc2cccnc2Nc2ccc(C3COCCO3)cc21 (stereo partly drawn) [Example 466, trans-4-({8-[-1,4-dioxan-2-yl]-5,11-dihydro-6H-pyrido[2,3-b][1,5]benzodiazepin-6-yl}carbonyl)-N-[1-(trifluoromethyl)cyclopropyl]-cyclohexanamine]	43 nM
O=C([C@H]1CC[C@H](NC2(C(F)(F)F)CC2)CC1)N1Cc2cccnc2Nc2ccc(C3COCCO3)cc21 (stereo partly drawn) [Example 467, trans-4-({8-[-1,4-dioxan-2-yl]-5,11-dihydro-6H-pyrido[2,3-b][1,5]benzodiazepin-6-yl}carbonyl)-N-[1-(trifluoromethyl)cyclopropyl]-cyclohexanamine]	46 nM
O=C([C@H]1CC[C@@H](N(CC(F)(F)F)C2CC2)CC1)N1Cc2cccnc2Nc2ccc(N3CCOCC3)cc21 [Example 468, cis-N-cyclopropyl-4-[(8-morpholin-4-yl-5,11-dihydro-6H-pyrido[2,3-b][1,5]benzodiazepin-6-yl)carbonyl]-N-(2,2,2-trifluoroethyl)cyclohexanamine]	44 nM
O=C([C@H]1CC[C@H](NC2(C(F)(F)F)CCC2)CC1)N1Cc2cccnc2Nc2ccc(N3CCOCC3)cc21 [Example 469, trans-4-[(8-morpholin-4-yl-5,11-dihydro-6H-pyrido[2,3-b][1,5]benzodiazepin-6-yl)carbonyl]-N-[1-(trifluoromethyl)cyclobutyl]-cyclohexanamine]	40 nM
O=C([C@H]1CC[C@@H](N2CC(F)(F)C(F)(F)C2)CC1)N1Cc2cccnc2Nc2ccc(N3CCOCC3)cc21 [Example 470, 8-morpholin-4-yl-6-{[cis-4-(3,3,4,4-tetrafluoropyrrolidin-1-yl)cyclohexyl]carbonyl}-6,11-dihydro-5H-pyrido[2,3-b][1,5]benzodiazepine]	64 nM
O=C(C1CCN(CC(F)F)CCO1)N1Cc2cccnc2Nc2ccc(N3CCOCC3)cc21 (centres unmarked) [Example 473, 6-{[4-(2,2-difluoroethyl)-1,4-oxazepan-7-yl]carbonyl}-8-morpholin-4-yl-6,11-dihydro-5H-pyrido[2,3-b][1,5]benzodiazepine]	21 nM
CC(C(F)F)N1CCC(C(=O)N2Cc3cccnc3Nc3ccc(N4CCOCC4)cc32)CC1 (centres unmarked) [Example 474, 6-{[1-(2,2-difluoro-1-methylethyl)piperidin-4-yl]carbonyl}-8-morpholin-4-yl-6,11-dihydro-5H-pyrido[2,3-b][1,5]benzodiazepine]	251 nM
O=C([C@H]1CC[C@@H](N2CCC(F)(F)C2)CC1)N1Cc2cccnc2Nc2ccc(N3CCOCC3)cc21 [Example 475, 6-{[cis-4-(3,3-difluoropyrrolidin-1-yl)cyclohexyl]carbonyl}-8-morpholin-4-yl-6,11-dihydro-5H-pyrido[2,3-b][1,5]benzodiazepine]	191 nM
O=C(C1CC(NC2(C(F)(F)F)CC2)C1)N1Cc2cccnc2Nc2ccc(N3CCOCC3)cc21 (centres unmarked) [Example 476, 3-[(8-morpholin-4-yl-5,11-dihydro-6H-pyrido[2,3-b][1,5]benzodiazepin-6-yl)carbonyl]-N-[1-(trifluoromethyl)cyclopropyl]-cyclobutanamine]	480 nM
